Measured values as given in patent EP4361157A1, “FUSED TETRACYCLIC COMPOUND, PREPARATION METHOD THEREFOR AND APPLICATION THEREOF IN MEDICINE” (Jiangsu Hengrui Pharmaceuticals Co., Ltd., priority 2021, dated 2022).

Amino acid sequences for entries named in this document (tags omitted). A change or cut given only in a name is not applied to a line headed by its entry.
UniProt P01116, whole entry: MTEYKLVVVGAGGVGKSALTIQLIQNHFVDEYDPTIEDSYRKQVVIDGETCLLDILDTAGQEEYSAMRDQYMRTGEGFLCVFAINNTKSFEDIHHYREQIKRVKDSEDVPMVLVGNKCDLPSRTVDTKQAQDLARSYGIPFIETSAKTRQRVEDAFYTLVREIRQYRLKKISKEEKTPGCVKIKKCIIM
UniProt P01116, whole entry G12D: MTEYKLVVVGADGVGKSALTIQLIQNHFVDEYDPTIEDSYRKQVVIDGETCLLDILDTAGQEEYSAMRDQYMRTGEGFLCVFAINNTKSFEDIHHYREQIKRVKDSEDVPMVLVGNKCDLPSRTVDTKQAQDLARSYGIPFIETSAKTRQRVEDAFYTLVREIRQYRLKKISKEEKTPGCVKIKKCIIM

Legend:
AGS cells [1] = test: Inhibition of 3D proliferation of AGS cells (CellTiter-Glo 3D); settings: read-out: AGS /IC50, 120 h incubation
Procedure: AGS cells (Nanjing Cobioer, CBP60476) were cultured in a complete medium, namely RPMI1640 medium (Hyclone, SH30809.01) containing 10% fetal bovine serum (Corning, 35-076-CV). On the first day of the experiment, the AGS cells were seeded into a 96-well low adsorption plate (Corning, CLS7007-24EA) at a density of 1,000 cells/well using complete medium to form 90 µL of cell suspension per well. The plate was centrifuged at 2,000rpm for 5 min at room temperature and then incubated overnight in a cell incubator at 37 °C with 5% CO2.
(§1) The next day, 10 µL of serially-diluted test compound prepared from the complete medium was added to each well. The final concentrations of the compound of GP2d cells were 9 concentration points obtained by 3-fold serial dilution from 1 µM, and the final concentrations of the compound of AGS cells were 9 concentration points obtained by 3-fold serial dilution from 10 µM. A blank control containing 0.5% DMSO was set. […] On the seventh day, the 96-well cell culture plate was taken out, 50 µL CellTiter-Glo® 3D reagent (Promega, G9682) was added into each well, the plate was shaken at room temperature for 25 min, pipetted and mixed well, 50 µL of the solution was transferred into a white impermeable 96-well plate (PE, 6005290), and the luminescence signal values were read using a multifunctional microplate reader (PerkinElmer, ENVISION). […]

AGS cells [2] = test: Inhibition of ERK phosphorylation of AGS cells (HTRF method); settings: read-out: AGS/IC50, phosphorylated ERK/total ERK ratio, 1 h incubation
Procedure: AGS cells (Nanjing Cobioer, CBP60476) were cultured in RPMI1640 (Hyclone, SH30809.01) complete medium containing 10% fetal bovine serum. On the first day of the experiment, the AGS cells were seeded into a 96-well plate with complete medium at a density of 40,000 cells/well to form 190 µL of cell suspension per well. The plate was incubated overnight in a cell incubator at 37 °C with 5% CO2.
The next day, 10 µL of serially-diluted test compound prepared from the complete medium was added to each well. The final concentrations of the compound were 9 concentration points obtained by 5-fold serial dilution from 10 µM. A blank control containing 0.5% DMSO was set. The well plate was incubated in a cell incubator at 37 °C with 5% CO2 for 1 h. After completion of incubation, the 96-well cell culture plate was taken out, the medium was removed by pipetting, 200 µL PBS (Shanghai BasalMedia Technologies Co., Ltd., B320) was added to each well, and the cells were washed once. […] On the third day, the fluorescence values at an excitation wavelength of 337 nm and at emission wavelengths of 665 nm and 620 nm were read using an ENVISION multifunctional microplate reader (PerkinElmer, ENVISION). […]

Avi-KRAS-G12D = Avi-KRAS-G12D (Homo sapiens, UniProt P01116, G12D); test: SPR affinity for KRAS protein subtype G12D (Biacore 8K); settings: read-out: G12D KD (unit mol/L), single-cycle kinetic mode, 1:1 model, biotinylated Avi-KRAS-G12D
Procedure: (§2) Biotinylated Avi-KRAS-WT or Avi-KRAS-G12D was diluted to 20 µg/mL with 1 × HBS-P+ (Cat. # BR1006-71) buffer containing 100 mM MgCl2, and then flowed through SA (Cat. # BR1005-31) biosensing chip channel 2 for 420 s to obtain a coupling level of approximately 5000-7000 RU. Then samples of small molecular compounds were injected for 120 s in an ascending order, and then were dissociated for 720 s. The experiment employed a single-cycle kinetic mode. Reaction signals were detected in real time using a Biacore 8K instrument to obtain association and dissociation curves. After the experiment ended, data analysis was performed using Biacore 8K evaluation software, and affinity data were obtained by performing data fitting using a 1:1 model. Table 3. Affinity data of compounds for KRAS protein subtype G12D or WT

GP2d cells = test: Inhibition of 3D proliferation of GP2d cells (CellTiter-Glo 3D); settings: read-out: GP2d /IC50, 120 h incubation
Procedure: GP2d cells (Nanjing Cobioer, CBP60010) were cultured in a complete medium, namely DMEM/high glucose medium (Hyclone, SH30243.01) containing 10% fetal bovine serum (Corning, 35-076-CV). On the first day of the experiment, GP2d cells were seeded into a 96-well low adsorption plate (Corning, CLS7007-24EA) with complete medium at a density of 1,000 cells/well to form 90 µL of cell suspension per well. The plate was centrifuged at 2,000 rpm for 5 min at room temperature and then incubated overnight in a cell incubator at 37 °C with 5% CO2.
as §1

Avi-KRAS-WT = Avi-KRAS-WT (Homo sapiens, UniProt P01116); test: SPR affinity for KRAS protein subtype WT (Biacore 8K); settings: read-out: WT KD (unit mol/L), single-cycle kinetic mode, 1:1 model, biotinylated Avi-KRAS-WT
Procedure: as §2

**Q.** Which IC50 (AGS cells [1]) does the source give for `CCc1cccc2cc(O)cc(-c3nc4c5c(nc(OC[C@@]67CCCN6C[C@H](F)C7)nc5c3F)N3CC5CCC(N5)C3CO4)c12` (some centres unmarked) here?
**A.** 25.8 nM

**Q.** And the IC50 (AGS cells [2])?
**A.** 1.1 nM

**Q.** What about the Kd (Avi-KRAS-G12D) of the same compound?
**A.** 0.3 nM

**Q.** What about the IC50 (GP2d cells) of the same compound?
**A.** 4.4 nM

**Q.** What about the Kd (Avi-KRAS-WT) of the same compound?
**A.** 7.6 nM
